Data set [1] deals with MDA-MB-436. Put plainly: In vitro anti-proliferation (Cell Titre-Glo), MDA-MB-436. The settings on record: Homo sapiens, MDA-MB-436, 96 h, read-out: IC50, mono. It is filed as cell-based. As for the experimental part: (§1) Tumor cells (Table 1) were propagated in a humidified 37° C. incubator in their respective growth medium supplemented 10% fetal calf serum. […] Test compounds were added to the wells using a Tecan-HP Digital Dispenser. After 96 hours of incubation cell viability was assessed with the Cell Titre-Glo Luminescent Cell Viability Assay (Promega).

The test system of data set [2] is human MDA-MB-436 breast cancer xenograft. The settings on record: mouse, in vivo.
Data set [3] deals with HT-144. Put plainly: In vitro anti-proliferation (Cell Titre-Glo), HT-144. It is filed as cell-based. Particulars: Homo sapiens, HT-144, 96 h, read-out: IC50, mono. On the procedure:
as §1

For data set [4], the system named is human 22Rv1 prostate cancer xenograft. The settings on record: mouse, in vivo.
Data set [5] concerns IGR-OV-1. Put plainly: In vitro anti-proliferation (Cell Titre-Glo), IGR-OV-1. It is filed as cell-based. The settings on record: Homo sapiens, IGROV-1, 96 h, read-out: IC50, mono. As for the experimental part:
as §1

Data set [6] concerns human 22Rv1 prostate cancer xenograft. Put plainly: 22Rv1 prostate cancer xenograft model. The settings on record: mouse, in vivo.
In data set [7] the test system is human MDA-MB-436 breast cancer xenograft. Put plainly: MDA-MB-436 breast cancer xenograft model. The settings on record: mouse, in vivo.
Data set [8] deals with NCI-H460. Put plainly: In vitro anti-proliferation (Cell Titre-Glo), NCI-H460. It is filed as cell-based. The settings on record: Homo sapiens, NCI-H460, 96 h, read-out: IC50, mono. As for the experimental part: as §1

Marks after values point to notes of the source that are not given here.

The values below come from US11660301B2, “Combination of ATR kinase inhibitors with PARP inhibitors” (Bayer Pharma Aktiengesellschaft, priority 2017, dated 2023).

`C[C@@H]1COCCN1c1cc(-c2ccnn2C)c2ccnc(-c3ccn[nH]3)c2n1` [Compound A, 2-[(3R)-3-methylmorpholin-4-yl]-4-(1-methyl-1H-pyrazol-5-yl)-8-(1H-pyrazol-5-yl)-1,7-naphthyridine]: the IC50 in data set [1] came out at 0.1 µM; in data set [3] it was 0.03 µM; in data set [5], 0.096 µM; in data set [8] it was 0.07 µM. Moreover, the “Max. weight loss (%)” value in data set [2] is listed as −6%; in data set [4], −3%. Besides, the T/C in data set [6] was 0.64*; in data set [7] it was 0.57. Moreover, the anti-tumor efficacy result is on record as “weak but statistically significant improved anti-tumor efficacy” in data set [6] and “moderate anti-tumor efficacy” in data set [7].
